ChEMBL document CHEMBL1140811, “Inhibition of dipeptidyl peptidase-IV (DPP-IV) by atorvastatin” (Bioorg Med Chem Lett, 2008)

The chains behind the UniProt entries cited, without tags or fusion partners. Where a name states a change or a piece, a line headed by the entry shows the natural chain unless it says otherwise.
UniProt P22411: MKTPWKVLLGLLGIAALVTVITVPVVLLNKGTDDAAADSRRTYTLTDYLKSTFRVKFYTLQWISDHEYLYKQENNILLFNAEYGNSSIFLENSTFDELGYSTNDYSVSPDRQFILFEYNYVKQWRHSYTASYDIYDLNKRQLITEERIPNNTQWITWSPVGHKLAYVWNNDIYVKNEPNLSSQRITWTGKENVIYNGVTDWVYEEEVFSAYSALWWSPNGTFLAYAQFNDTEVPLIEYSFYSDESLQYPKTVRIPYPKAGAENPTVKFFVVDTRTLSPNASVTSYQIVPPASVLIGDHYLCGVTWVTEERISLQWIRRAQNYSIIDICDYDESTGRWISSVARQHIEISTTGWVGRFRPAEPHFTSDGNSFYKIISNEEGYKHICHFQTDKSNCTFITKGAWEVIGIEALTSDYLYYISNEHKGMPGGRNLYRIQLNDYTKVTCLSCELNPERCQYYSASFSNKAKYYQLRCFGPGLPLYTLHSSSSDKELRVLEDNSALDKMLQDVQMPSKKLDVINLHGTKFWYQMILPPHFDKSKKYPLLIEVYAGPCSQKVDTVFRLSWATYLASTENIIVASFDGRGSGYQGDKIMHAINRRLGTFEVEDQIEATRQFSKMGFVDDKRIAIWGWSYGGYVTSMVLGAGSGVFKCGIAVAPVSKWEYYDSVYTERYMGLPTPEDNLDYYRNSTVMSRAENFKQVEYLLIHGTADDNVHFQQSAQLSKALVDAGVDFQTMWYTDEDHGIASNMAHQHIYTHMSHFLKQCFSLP

Target: Dipeptidyl peptidase 4 (Sus scrofa, UniProt P22411)
Assay: Inhibition of pig DPP4

SMILES: CC[C@H](C)[C@H](N)C(=O)N1CCC[C@H]1C(=O)N[C@H](C(=O)O)[C@@H](C)CC [DIPROTIN A]
- IC50: 14.4 µM
